Results reported in patent publication US10413557B2, “Prodrugs of 17.BETA.-HSD1-inhibitors” (FORENDO PHARMA LTD, priority 2014, dated 2019).

Experiment: Aqueous solubility test
Assay type: physicochemical
Experimental: The pH of the mixtures was held constant during the study. Excess amounts or a known amount of each component are added to 1 or 0.5 ml of buffer solution and the mixtures were stirred at rt for 48 hours or less, filtered (0.45 μm Millipore) and analyzed by HPLC.

With “Phosphoric acid mono-{(13S,15R)-17-[(E)-methoxyimino]-13-methyl-15-[2-(5-methylthiazol-2-ylcarbamoyl)ethyl-7,8,9,11,12,13,14,15,16,17-decahydro-6H-cyclopenta[a]phenanthren-3-yl} ester disodium salt [Compound 1a]” the “aqueous solubility, in words” value (comment on Table 5, compared with parent VIV-1) was “improved aqueous solubility” and the “Aqueous solubility, buffer at pH 7.4” value (rt, buffer pH 7.4, stirred 48 hours or less, HPLC) was “over 35 mg/ml”.
